This is a selection: effects in other tests are not listed, and their absence says nothing.
What was measured:
[1] = Color change and charge-transfer absorption on complexation of guests with tetra-TTF calix[4]pyrrole 2a; conditions: for color of solution on mixing guest with 2a: in either CH2Cl2 or CHCl3; for absorption band centered at λ in the UV-vis spectrum / color change: 2 equiv of guest added to CH2Cl2 solution of 2a
[2] = Binding constants between tetra-TTF calix[4]pyrrole 2a and nitrated aromatic guests by 1H NMR spectroscopic titration; conditions: guest binding to 2a, CDCl3, 298 K, 1:2 complexation, estimated errors <15%

Row | SMILES | color of solution on mixing guest with 2a [1] | Ka^1 [2] | Ka^2 [2] | absorption band centered at λ in the UV-vis spectrum [1] | color change [1] | color change in the solid state upon complexation ([1]; solid state, FIG. 4)
1 | Cc1ccc([N+](=O)[O-])cc1[N+](=O)[O-] | green | 25 M⁻¹ | 49 M⁻¹ |  |  | 
2 | Cc1c([N+](=O)[O-])cc([N+](=O)[O-])cc1[N+](=O)[O-] | green | 25 M⁻¹ | 132 M⁻¹ | 625 nm | yellow to green | 
3 | O=[N+]([O-])c1cc([N+](=O)[O-])cc([N+](=O)[O-])c1 | green | 20 M⁻¹ | 900 M⁻¹ | 677 nm | yellow to green | yellow to black
4 | Cc1c([N+](=O)[O-])cccc1[N+](=O)[O-] | green | 14 M⁻¹ | 37 M⁻¹ |  |  | 
